Assay results from patent publication US4207308A, “Process for purifying iodinated bile acid conjugates” (priority 1977, dated 1980).

Tests used:
[1] = rabbit, in vivo, iv
[2] = rat, in vivo
[3] = mouse, in vivo

## Cholylglycyl-^125 I-histamine [cholylglycyl-125I-histamine]
[1]
  blood t1/2: about 3.0 minutes
[2]; 60 min
  percent of the dose in Duodenum: 2.9%
  percent of the dose in Ileum: 82.6%
  percent of the dose in Jejunum: 9.0%
  percent of the dose in Liver: 2.1%
  percent of the dose in Other organs: 2.06%
  percent of the dose in Spleen: 0.04%
  percent of the dose in Stomach: 1.3%
[2]; iv, 1 h
  radioactivity excreted by the liver and found in the jejunum and ileum: 80-90%
[3]
  hepatic scintigram (in words): The liver is prominently displayed with some radioactivity appearing in the small intestine
